In this assay the target is CD206 (Homo sapiens, UniProt P22897). Conditions: read-out: Kd for tilmanocept/CD206; mannose as carbohydrate recognition moiety.

Protein sequences, listed by entry. Tags and fused reporters are not part of them. Residues count along the entry.
UniProt P22897, 19-1456: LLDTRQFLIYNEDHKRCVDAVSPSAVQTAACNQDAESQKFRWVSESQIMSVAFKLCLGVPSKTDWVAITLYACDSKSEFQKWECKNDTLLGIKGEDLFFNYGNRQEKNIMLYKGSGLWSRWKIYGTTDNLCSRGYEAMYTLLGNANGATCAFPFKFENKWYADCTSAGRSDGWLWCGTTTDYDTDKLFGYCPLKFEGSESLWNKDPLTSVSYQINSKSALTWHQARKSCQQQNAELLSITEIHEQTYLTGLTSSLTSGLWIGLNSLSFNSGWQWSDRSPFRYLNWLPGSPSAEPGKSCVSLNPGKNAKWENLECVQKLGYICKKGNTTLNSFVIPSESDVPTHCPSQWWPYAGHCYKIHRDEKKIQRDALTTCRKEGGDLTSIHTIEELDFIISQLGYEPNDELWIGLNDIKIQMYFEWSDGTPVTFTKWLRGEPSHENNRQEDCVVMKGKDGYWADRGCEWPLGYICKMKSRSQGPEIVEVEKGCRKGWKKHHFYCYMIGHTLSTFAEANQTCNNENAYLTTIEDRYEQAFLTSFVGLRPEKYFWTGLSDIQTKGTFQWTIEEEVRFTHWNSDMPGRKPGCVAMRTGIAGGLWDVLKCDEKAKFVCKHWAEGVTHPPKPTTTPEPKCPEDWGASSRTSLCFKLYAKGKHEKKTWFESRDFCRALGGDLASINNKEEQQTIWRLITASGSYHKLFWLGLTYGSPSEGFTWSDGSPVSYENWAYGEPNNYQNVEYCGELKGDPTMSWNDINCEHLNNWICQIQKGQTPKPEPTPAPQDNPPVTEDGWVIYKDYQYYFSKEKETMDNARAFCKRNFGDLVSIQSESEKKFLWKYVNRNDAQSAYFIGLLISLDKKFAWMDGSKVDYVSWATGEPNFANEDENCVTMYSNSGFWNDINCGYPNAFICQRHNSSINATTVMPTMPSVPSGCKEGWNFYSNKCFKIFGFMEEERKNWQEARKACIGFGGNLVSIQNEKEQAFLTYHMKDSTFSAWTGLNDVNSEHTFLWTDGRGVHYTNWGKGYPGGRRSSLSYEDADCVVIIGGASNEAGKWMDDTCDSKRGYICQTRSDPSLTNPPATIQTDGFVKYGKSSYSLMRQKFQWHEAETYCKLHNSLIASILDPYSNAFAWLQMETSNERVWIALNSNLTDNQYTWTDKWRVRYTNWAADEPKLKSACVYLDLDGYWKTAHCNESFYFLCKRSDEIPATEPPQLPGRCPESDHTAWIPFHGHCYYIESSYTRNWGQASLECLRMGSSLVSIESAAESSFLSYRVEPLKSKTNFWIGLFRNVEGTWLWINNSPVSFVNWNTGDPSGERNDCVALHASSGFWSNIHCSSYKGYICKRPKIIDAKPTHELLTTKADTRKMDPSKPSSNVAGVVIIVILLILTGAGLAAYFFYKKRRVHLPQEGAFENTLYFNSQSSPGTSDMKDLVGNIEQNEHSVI

Several values for one entry are separate records, joined by “and”; a condition that tells them apart may be missing. Equal entries are not always repeated.

Consider “dextran 3-[(2-aminoethyl)thio]propyl 17-carboxy-10,13,16-tris(carboxymethyl)-8-oxo-4-thia-7,10,13,16-tetraazahepta-dec-1-yl 3-[[2-[[1-imino-2-(D-mannopyranosylthio)ethyl]amino]ethyl]thio] propyl ether complexes [tilmanocept]”, for which the Kd was ~0.03 nM and 0.03 nM.

(Values after patent US12070504B1, “Compounds and methods for altering cyto-states of cells that express c-type lectin receptors” (Physis International LLC, priority 2020, dated 2024).)
